The values that follow come from paper PMC10354055, “An optimized Nurr1 agonist provides disease-modifying effects in Parkinson’s disease models” (Nature Communications, 2023).

For this assay, the system named is MPTP-induced male mice. The experiment in a line: Rotarod, sub-chronic MPTP-induced PD model mice. The note with it: Figure 4b, individual animal values. The format is in vivo, mouse. The protocol: MPTP (Sigma-Aldrich) was intraperitoneally (i.p.) injected (30 mg/kg) for 5 days (Day 1-5). […] To test dyskinetic involuntary behavior, an L-DOPA injected group was included, which received 50 mg/kg of L-DOPA and 15 mg/kg of benserazide (Sigma-Aldrich) (i.p.) for 16 days (Day 1–16). All compounds were administered 6 h post-MPTP injection to avoid any effect of compounds on the MPTP metabolism in the brain. Motor and non-motor related behavior tests were performed on the following days as described in Fig. 4a in an assessor- and observer-blinded fashion. Pre-training and baseline setup for motor-related behaviors were performed 3 days prior to the injections. Mice were sacrificed and subjected to immunohistochemistry. Mice were housed at the Animal Care Facilities of McLean Hospital under a 12-h light/12-h dark cycle, ambient temperature and humidity. Animals were handled in accordance with McLean Hospital’s Institutional Animal Care and Use Committee (Protocol #: 2015N000002) and followed National Institutes of Health guidelines.
Mice were pre-trained on an automated 5-lane rotarod unit (10 rpm, 3 min) for 2 days and the baseline was measured (10 rpm, 90 sec) before the rotarod test (3 days before the MPTP injection or the first rotarod test at week 2). […] Time on the rotating rod was measured automatically by placing a trip switch under the floor beneath the rotating drum.

Regarding `CCN(CC)CCCC(C)Nc1ccnc2cc(Cl)ccc12` (stereo not shown) [CQ, chloroquine], the “Latency to fall” value came to 114.8 s.
